This is an account of results in PubChem BioAssay AID1032 (The Scripps Research Institute Molecular Screening Center, 2008).

Protein sequences, listed by entry. Tags and fused reporters are not part of them. Residues count along the entry.
UniProt P37231, 232-505 limits assumed: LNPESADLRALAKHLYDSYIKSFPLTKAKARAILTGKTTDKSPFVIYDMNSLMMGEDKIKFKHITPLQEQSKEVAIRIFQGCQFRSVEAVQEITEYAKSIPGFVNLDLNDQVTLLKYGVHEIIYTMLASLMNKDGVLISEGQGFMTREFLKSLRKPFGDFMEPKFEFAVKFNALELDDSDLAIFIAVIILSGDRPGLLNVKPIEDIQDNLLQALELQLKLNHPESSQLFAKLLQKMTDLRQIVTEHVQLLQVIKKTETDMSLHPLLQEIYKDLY
UniProt Q15596, whole entry partner: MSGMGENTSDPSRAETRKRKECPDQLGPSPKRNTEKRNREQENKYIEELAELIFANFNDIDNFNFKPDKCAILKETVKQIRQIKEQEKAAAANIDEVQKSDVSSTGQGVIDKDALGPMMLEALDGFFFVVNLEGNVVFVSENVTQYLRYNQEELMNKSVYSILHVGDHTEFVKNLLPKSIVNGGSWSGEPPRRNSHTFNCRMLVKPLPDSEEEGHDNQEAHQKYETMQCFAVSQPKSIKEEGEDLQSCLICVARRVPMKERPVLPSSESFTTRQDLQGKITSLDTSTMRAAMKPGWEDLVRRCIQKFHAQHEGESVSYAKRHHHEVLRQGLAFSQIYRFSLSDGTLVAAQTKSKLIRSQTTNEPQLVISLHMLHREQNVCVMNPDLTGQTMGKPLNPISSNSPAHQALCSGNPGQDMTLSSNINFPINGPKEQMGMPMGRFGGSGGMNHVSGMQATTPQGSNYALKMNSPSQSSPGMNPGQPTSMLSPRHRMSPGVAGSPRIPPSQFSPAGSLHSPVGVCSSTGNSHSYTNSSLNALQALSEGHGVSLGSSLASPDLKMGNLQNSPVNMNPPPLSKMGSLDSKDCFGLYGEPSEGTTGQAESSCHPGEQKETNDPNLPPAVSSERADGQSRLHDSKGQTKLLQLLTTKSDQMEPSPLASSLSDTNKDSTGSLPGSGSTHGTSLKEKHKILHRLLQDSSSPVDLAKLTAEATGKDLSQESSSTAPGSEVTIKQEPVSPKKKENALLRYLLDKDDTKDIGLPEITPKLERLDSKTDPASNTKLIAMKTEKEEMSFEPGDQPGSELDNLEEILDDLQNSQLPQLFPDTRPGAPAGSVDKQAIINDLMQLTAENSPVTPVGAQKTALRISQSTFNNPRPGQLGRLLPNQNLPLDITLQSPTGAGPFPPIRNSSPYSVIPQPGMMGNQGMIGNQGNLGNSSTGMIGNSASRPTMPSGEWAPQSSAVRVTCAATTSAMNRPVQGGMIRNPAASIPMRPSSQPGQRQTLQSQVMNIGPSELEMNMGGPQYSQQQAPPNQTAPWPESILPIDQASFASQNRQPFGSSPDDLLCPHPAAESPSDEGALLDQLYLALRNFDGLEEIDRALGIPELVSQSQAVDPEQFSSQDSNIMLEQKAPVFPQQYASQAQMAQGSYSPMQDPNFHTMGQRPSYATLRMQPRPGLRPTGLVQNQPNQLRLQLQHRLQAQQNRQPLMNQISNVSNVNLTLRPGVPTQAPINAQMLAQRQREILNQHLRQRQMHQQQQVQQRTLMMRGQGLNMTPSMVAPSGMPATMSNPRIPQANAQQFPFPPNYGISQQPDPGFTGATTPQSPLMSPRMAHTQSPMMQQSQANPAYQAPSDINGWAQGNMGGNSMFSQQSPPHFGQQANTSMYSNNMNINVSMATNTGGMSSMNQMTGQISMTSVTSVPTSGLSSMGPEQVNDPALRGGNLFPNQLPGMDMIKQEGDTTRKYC

Only a part is listed here, and it is no random draw. The source made the active and inactive calls. Cut-off read from the data, not from the text of the source: active = activation above about 22%; inactive = the rest.

The test addresses Peroxisome proliferator-activated receptor gamma (Homo sapiens) (UniProt P37231). Description: compounds enhancing SRC-2 coactivator binding to PPARgamma – biochemical, HTS, primary screen (AID 1032).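 Note: 0% = vehicle and 100% = reference agonist.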 Particulars: PPARgamma LBD-SRC-2 recruitment, at 8 µM, stronger effect = higher value.
In the case of `COc1ccccc1OP(C)(=O)Nc1cc(Cl)ccc1C` (stereo unspecified), the activation is inactive: 3.76%.
